Measured values taken from patent US11548915B2, “Composition for overcoming resistance to EGFR-targeting agent” (Pinetree Therapeutics, Inc., priority 2016, dated 2023).

Columns and labels:
[1] = test system: FAK, Src and Akt phosphorylation in Ctx^R pancreatic cancer cell lines (BxPC-3, PANC-1, SW1990); assay: Western blot of phosphorylation levels after Ctx treatment; type: cell-based; conditions: Ctx 1 μM or 0.1 μM, 24 hours
Protocol: For Western blot analysis, the cell lysate was incubated with antibodies, which recognize pEGFR (Y1173), EGFR, pFAK, FAK, pSrc, Src, pAkt, Akt, pERK1/2, ERK1/2 and β-actin, respectively, at 4° C. for 12 hours, and incubated with HRP-conjugated secondary antibodies (SantaCruz) at 25° C. for 1 hour, followed by analysis.

[2] = test system: Ctx^R cell lines (BxPC-3, PANC-1 and SW1990); assay: MTT cell viability after Ctx treatment of integrin β1 siRNA-treated cells; type: cell-based; conditions: integrin β1 siRNA 100 nM; Ctx 2 μM, 48 hours
[3] = test system: BxPC-3 and PANC-1 cell lines; assay: MTT cell viability, Ctx in combination with PI3K-Akt, Src or Raf inhibitor; type: cell-based; conditions: 72 hours
Protocol: Then, cell viability was analyzed by MTT assay.

A549 [4] = assay: WST-1 cell viability after Ctx treatment of siRNA-treated cells; type: cell-based; conditions: Ctx 2 μM, 48 hours
A549 [5] = assay: WST-1 cell viability, Ctx in combination with PI3K-Akt, Src or Raf inhibitor; type: cell-based; conditions: 48 hours
HCC44 [6] = assay: as above; type: cell-based; conditions: 48 hours
Calu-3 = assay: WST-1 cell viability assay
H1975 = assay: WST-1 cell viability assay
H522 = assay: WST-1 cell viability assay; conditions: H522 lung cancer cell line
A549 [7] = assay: WST-1 cell viability assay; conditions: A549 lung cancer cell line
Calu-1 = assay: WST-1 cell viability assay; conditions: Calu-1 lung cancer cell line
H358 = assay: WST-1 cell viability assay; conditions: H358 lung cancer cell line
H441 = assay: WST-1 cell viability assay; conditions: H441 lung cancer cell line
H2009 = assay: WST-1 cell viability assay; conditions: H2009 lung cancer cell line
HCC44 [8] = assay: WST-1 cell viability assay; conditions: HCC44 lung cancer cell line
HCC2108 = assay: WST-1 cell viability assay; conditions: HCC2108 lung cancer cell line
Miapaca-2 [9] = assay: MTT cell proliferation assay
BxPC-3 [10] = assay: MTT cell proliferation assay
PANC-1 [11] = assay: MTT cell proliferation assay
Capan-2 = assay: MTT cell proliferation assay
SW1990 = assay: MTT cell proliferation assay; conditions: SW1990 pancreatic cancer cell line
Miapaca-2 [12] = assay: Annexin V-FITC apoptosis assay (FACS); conditions: Miapaca-2 (Ctx^S); 4 μM, 48 hours
AsPC-1 = assay: Annexin V-FITC apoptosis assay (FACS); conditions: AsPC-1 (Ctx^S); 4 μM, 48 hours
BxPC-3 [13] = assay: Annexin V-FITC apoptosis assay (FACS); conditions: BxPC-3 (Ctx^R); 4 μM, 48 hours
PANC-1 [14] = assay: Annexin V-FITC apoptosis assay (FACS); conditions: PANC-1 (Ctx^R); 4 μM, 48 hours
Ctx^R BxPC-3 and PANC-1 = assay: FACS analysis of receptor endocytosis; conditions: 2 μM, 0-60 min, 37° C., serum-free; FACS cell surface level
Ctx^R PANC-1 xenograft = assay: In vivo tumor growth inhibition, xenograft; conditions: intravenous, compared to the control PBS
[15] = test system: Ctx^R pancreatic cancer cell lines; assay: MTT cell proliferation after NRP1, integrin-β1 or cMet siRNA; conditions: 2 μM, 48 hours
[16] = 5, 2 and 1 μM SU6656 with 2 μM Ctx
[17] = 5, 2 and 1 μM sorafenib with 2 μM Ctx
[18] = 50, 20 and 10 μM LY294002 with 2 μM Ctx

cetuximab [Ctx]
phosphorylation levels of FAK, Src and Akt [1]: maintain high phosphorylation levels of FAK, Src and Akt
resistance to Ctx (cell viability) when integrin β1 expression is inhibited [2]: could overcome resistance to Ctx
resistance to Ctx (cell viability) when phosphorylation of Raf is inhibited ([3]; 2.5 μM sorafenib (Raf inhibitor) with 2 μM Ctx): resistance to Ctx could not be overcome
resistance to Ctx (cell viability) when phosphorylation of Src is inhibited ([3]; 5 μM SU6656 (Src inhibitor) with 2 μM Ctx): could overcome resistance to Ctx
resistance to Ctx (cell viability) when phosphorylation of Akt is inhibited ([3]; 50 μM LY294002 (PI3K-Akt inhibitor) with 2 μM Ctx): could overcome resistance to Ctx
resistance to Ctx when NRP1 expression is inhibited (A549 [4]; NRP1 siRNA 100 nM): overcame resistance to Ctx; also recorded: could overcome resistance to Ctx
resistance to Ctx when TGFβ2 expression is inhibited (A549 [4]; TGFβ2 siRNA 100 nM): could not overcome resistance to Ctx
resistance to Ctx when VEGFR1 expression is inhibited (A549 [4]; VEGFR1 siRNA 100 nM): could not overcome resistance to Ctx
resistance to Ctx when cMet expression is inhibited (A549 [4]; cMet siRNA 100 nM): could not overcome resistance to Ctx
resistance to Ctx when integrin β1 expression is inhibited (A549 [4]; integrin β1 siRNA 100 nM): could not overcome resistance to Ctx
resistance to Ctx when integrin β3 expression is inhibited (A549 [4]; integrin β3 siRNA 100 nM): overcame resistance to Ctx; also recorded: could overcome resistance to Ctx
resistance to Ctx when phosphorylation of Src is inhibited (A549 [5]; [16]): could overcome resistance to Ctx
resistance to Ctx when phosphorylation of Raf is inhibited (A549 [5]; [17]): could not overcome resistance to Ctx
resistance to Ctx when phosphorylation of Akt is inhibited (A549 [5]; [18]): could overcome resistance to Ctx
resistance to Ctx when phosphorylation of Src is inhibited (HCC44 [6]; [16]): could overcome resistance to Ctx
resistance to Ctx when phosphorylation of Raf is inhibited (HCC44 [6]; [17]): could not overcome resistance to Ctx
resistance to Ctx when phosphorylation of Akt is inhibited (HCC44 [6]; [18]): could overcome resistance to Ctx
cell growth inhibitory activity (WST-1) (Calu-3; Calu-3, NRP1-expressing, 0, 1, 2, and 4 μM, 48 hours): showed the same inhibitory activity against cell growth
Responsiveness to Cetuximab (Calu-3; Calu-3 lung cancer cell line): Sensitive
cell growth inhibitory activity (WST-1) (H1975; H1975, NRP1-expressing, 0, 1, 2, and 4 μM, 48 hours): showed the same inhibitory activity against cell growth
Responsiveness to Cetuximab (H1975; H1975 lung cancer cell line): Sensitive
Responsiveness to Cetuximab (H522): showing resistance to Ctx due to non-expression of EGFR
Responsiveness to Cetuximab (H522; listed as Cetuximab): Resistant
Responsiveness to Cetuximab (A549 [7]): Resistant
Responsiveness to Cetuximab (Calu-1): Resistant
Responsiveness to Cetuximab (H358): Resistant
Responsiveness to Cetuximab (H441): Resistant
Responsiveness to Cetuximab (H2009): Resistant
Responsiveness to Cetuximab (HCC44 [8]): Resistant
Responsiveness to Cetuximab (HCC2108): Resistant
cell growth inhibition (MTT) (Miapaca-2 [9]; Miapaca-2 (Ctx^S), 0, 1, 2, 4 μM twice at 48-hour intervals, total 96 hours): showed the same cell growth inhibitory ability
Responsiveness to Cetuximab (Miapaca-2 [9]; Miapaca-2 pancreatic cancer cell line): Sensitive
cell growth inhibition (MTT) (BxPC-3 [10]; BxPC-3 (Ctx^R), 0, 1, 2, 4 μM twice at 48-hour intervals, total 96 hours): showed cell growth inhibition, unlike Ctx
Responsiveness to Cetuximab (BxPC-3 [10]; BxPC-3 pancreatic cancer cell line): Resistant
cell growth inhibition (MTT) (PANC-1 [11]; PANC-1 (Ctx^R), 0, 1, 2, 4 μM twice at 48-hour intervals, total 96 hours): showed cell growth inhibition, unlike Ctx
Responsiveness to Cetuximab (PANC-1 [11]; PANC-1 pancreatic cancer cell line): Resistant
cell growth inhibition (MTT) (Capan-2; Capan-2 (Ctx^R), 0, 1, 2, 4 μM twice at 48-hour intervals, total 96 hours): showed cell growth inhibition, unlike Ctx
Responsiveness to Cetuximab (Capan-2; Capan-2 pancreatic cancer cell line): Resistant
Responsiveness to Cetuximab (SW1990): Resistant
apoptosis (annexin V-FITC) (Miapaca-2 [12]): induced apoptosis in the same manner
apoptosis (annexin V-FITC) (AsPC-1): induced apoptosis in the same manner
apoptosis (annexin V-FITC) (BxPC-3 [13]): induced apoptosis, unlike Ctx
apoptosis (annexin V-FITC) (PANC-1 [14]): induced apoptosis, unlike Ctx
endocytosis of EGFR (Ctx^R BxPC-3 and PANC-1): increased the endocytosis of EGFR
tumor growth (tumor volume, tumor weight) (Ctx^R PANC-1 xenograft): showed resistance
cell growth inhibitory ability when expression of NRP1 is inhibited ([15]; NRP1 siRNA): resistance to Ctx still appeared
resistance to Ctx when cMet expression is inhibited ([15]; cMet siRNA): could not overcome resistance to Ctx
resistance to Ctx when expression of integrin β1 is inhibited ([15]; integrin β1 siRNA): resistance to Ctx was overcome

“Also recorded” adds a separate entry of the source.
